Assay results taken from US20160152947A1 (BOARD OF REGENTS OF THE UNIVERSITY OF OKLAHOMA, published 2016).

Key:
[1] = biological target: LGR4 expressed by HEK293T cells (UniProt Q9BXB1); assay: cell-based or functional assay
[2] = biological target: MBP-Th-LGR4 LRR1-14 (MBP-Th-hLGR4.23-383-H6) (human) (UniProt Q9BXB1); assay: TR-FRET competition binding; Tb-labeled MBP-Th-LGR4 LRR1-14 (20 nM), AF488-labeled MBP-Th-RSPO2 Fu1-Fu2 (125 nM) as tracer

Row | pEC50, [..] Wnt signaling assay in HEK293T cells [1] | pKI [2] | Substance
1 | 9.75 | 7.57 | MBP-Th-RSPO2 Fu1-Fu2-H6 [T111I] mutant (MBP-Th-RSPO2.22-144-H6 (T111I)) (ligand)
2 |  | 8.36 | MBP-Th-RSPO2-4 Fu1-Fu2 chimera (MBP-Th-RSPO2.22-76-RSPO4.72-138-H6) (designed binder)
3 |  | 7.32 | MBP-Th-RSPO4-1 Fu1-Fu2 chimera (MBP-Th-RSPO4.21-71-RSPO1.78-145-H6) (designed binder)
